Assay results published in ChEMBL document CHEMBL1151781, “Selectivity of inhibitors of endocannabinoid biosynthesis evaluated by activity-based protein profiling” (Bioorg Med Chem Lett, 2008).
Activity calls are given as the source filed them.

Tests used:
Assay type in all cases: tissue-based
[1] = biological target: T1, Fatty-acid amide hydrolase 1 (Mus musculus) (UniProt O08914); experiment: Inhibition of FAAH in mouse brain at 0.01 to 100 uM treated for 30 mins by SDS-PAGE using rhodamine-tagged FP probe
T1 sequence (whole entry): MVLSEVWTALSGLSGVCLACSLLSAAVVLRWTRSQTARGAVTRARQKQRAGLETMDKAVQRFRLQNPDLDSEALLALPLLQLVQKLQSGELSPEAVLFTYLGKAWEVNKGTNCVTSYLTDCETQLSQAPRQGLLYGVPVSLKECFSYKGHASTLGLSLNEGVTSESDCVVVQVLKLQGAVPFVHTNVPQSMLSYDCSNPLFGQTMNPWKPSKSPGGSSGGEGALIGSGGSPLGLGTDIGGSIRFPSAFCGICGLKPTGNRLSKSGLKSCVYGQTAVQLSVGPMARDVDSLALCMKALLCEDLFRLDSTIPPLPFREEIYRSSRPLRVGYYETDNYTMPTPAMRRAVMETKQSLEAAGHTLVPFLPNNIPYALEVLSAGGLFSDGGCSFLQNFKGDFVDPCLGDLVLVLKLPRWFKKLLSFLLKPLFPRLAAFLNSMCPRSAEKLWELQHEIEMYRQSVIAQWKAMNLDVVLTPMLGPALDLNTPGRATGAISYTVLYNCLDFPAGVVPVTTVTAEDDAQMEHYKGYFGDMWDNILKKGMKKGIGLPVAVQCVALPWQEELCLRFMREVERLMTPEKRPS
Summary of the method: (§1)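 Mouse brain membrane proteome preincubated with inhibitor across 0.01-100 μM for 30 min. A rhodamine-tagged fluorophosphonate probe (FP-Rh) was then added for 60 min. Samples were resolved by SDS-PAGE, and probe labeling of each hydrolase band was read by in-gel fluorescence scanning.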

[2] = biological target: T2, Neutral cholesterol ester hydrolase 1 (Mus musculus) (UniProt Q8BLF1); experiment: Inhibition of KIAA1363 in mouse brain at 0.01 to 100 uM treated for 30 mins by SDS-PAGE using rhodamine-tagged FP probe; summary of the method: as §1
T2 sequence (whole entry): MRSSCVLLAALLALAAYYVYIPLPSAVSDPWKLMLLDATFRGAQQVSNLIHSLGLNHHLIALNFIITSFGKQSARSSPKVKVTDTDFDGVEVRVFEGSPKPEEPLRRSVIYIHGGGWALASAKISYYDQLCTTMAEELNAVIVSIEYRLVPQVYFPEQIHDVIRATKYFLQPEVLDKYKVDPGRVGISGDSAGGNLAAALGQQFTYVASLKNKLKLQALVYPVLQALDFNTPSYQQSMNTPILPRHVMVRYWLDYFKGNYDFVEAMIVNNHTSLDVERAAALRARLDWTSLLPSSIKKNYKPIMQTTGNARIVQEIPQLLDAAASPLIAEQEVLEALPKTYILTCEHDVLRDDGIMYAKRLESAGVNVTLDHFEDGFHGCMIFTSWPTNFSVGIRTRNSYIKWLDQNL

[3] = biological target: T3, Monoglyceride lipase (Mus musculus) (UniProt O35678); experiment: Inhibition of MAGL in mouse brain at 0.01 to 100 uM treated for 30 mins by SDS-PAGE using rhodamine-tagged FP probe; summary of the method: as §1
T3 sequence (whole entry): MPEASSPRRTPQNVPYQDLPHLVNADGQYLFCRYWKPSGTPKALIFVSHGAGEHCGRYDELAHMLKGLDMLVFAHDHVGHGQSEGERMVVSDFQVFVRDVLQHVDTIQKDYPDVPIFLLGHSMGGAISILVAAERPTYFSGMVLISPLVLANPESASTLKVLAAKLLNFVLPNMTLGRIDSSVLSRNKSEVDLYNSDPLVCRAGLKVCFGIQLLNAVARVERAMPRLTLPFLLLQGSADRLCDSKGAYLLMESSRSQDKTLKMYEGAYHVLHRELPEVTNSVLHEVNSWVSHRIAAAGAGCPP

[4] = biological target: T4, Monoacylglycerol lipase ABHD6 (Mus musculus) (UniProt Q8R2Y0); experiment: Inhibition of ABHD6 in mouse brain at 0.01 to 100 uM treated for 30 mins by SDS-PAGE using rhodamine-tagged FP probe; summary of the method: as §1
T4 sequence (whole entry): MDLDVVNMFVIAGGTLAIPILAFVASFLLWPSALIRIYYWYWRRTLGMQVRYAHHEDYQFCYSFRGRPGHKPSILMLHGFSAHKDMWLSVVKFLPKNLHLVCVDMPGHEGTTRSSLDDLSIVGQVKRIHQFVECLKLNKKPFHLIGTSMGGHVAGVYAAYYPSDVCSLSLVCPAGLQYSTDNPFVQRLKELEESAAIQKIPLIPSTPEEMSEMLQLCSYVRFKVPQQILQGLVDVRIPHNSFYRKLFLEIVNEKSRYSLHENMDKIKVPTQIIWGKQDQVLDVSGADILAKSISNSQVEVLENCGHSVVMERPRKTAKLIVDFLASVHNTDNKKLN

[5] = biological target: T5, Lysophosphatidylserine lipase ABHD12 (Mus musculus) (UniProt Q99LR1); experiment: Inhibition of ABHD12 in mouse brain at 0.01 to 100 uM treated for 30 mins by SDS-PAGE using rhodamine-tagged FP probe; summary of the method: as §1
T5 sequence (whole entry): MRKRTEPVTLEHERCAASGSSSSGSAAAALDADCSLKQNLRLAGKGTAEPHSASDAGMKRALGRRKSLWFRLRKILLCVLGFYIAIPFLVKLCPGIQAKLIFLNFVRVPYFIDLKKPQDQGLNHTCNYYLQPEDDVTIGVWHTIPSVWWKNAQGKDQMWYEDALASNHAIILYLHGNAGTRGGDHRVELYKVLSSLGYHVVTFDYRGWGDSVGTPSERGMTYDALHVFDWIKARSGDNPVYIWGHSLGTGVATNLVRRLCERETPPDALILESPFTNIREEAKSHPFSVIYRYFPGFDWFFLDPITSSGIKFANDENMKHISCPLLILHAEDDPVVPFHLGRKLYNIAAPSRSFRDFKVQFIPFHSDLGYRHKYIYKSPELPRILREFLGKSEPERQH

[6] = biological target: T6, Phosphatidylserine lipase ABHD16A (Mus musculus) (UniProt Q9Z1Q2); experiment: Inhibition of BAT5 in mouse brain at 0.01 to 100 uM treated for 30 mins by SDS-PAGE using rhodamine-tagged FP probe; summary of the method: as §1
T6 sequence (whole entry): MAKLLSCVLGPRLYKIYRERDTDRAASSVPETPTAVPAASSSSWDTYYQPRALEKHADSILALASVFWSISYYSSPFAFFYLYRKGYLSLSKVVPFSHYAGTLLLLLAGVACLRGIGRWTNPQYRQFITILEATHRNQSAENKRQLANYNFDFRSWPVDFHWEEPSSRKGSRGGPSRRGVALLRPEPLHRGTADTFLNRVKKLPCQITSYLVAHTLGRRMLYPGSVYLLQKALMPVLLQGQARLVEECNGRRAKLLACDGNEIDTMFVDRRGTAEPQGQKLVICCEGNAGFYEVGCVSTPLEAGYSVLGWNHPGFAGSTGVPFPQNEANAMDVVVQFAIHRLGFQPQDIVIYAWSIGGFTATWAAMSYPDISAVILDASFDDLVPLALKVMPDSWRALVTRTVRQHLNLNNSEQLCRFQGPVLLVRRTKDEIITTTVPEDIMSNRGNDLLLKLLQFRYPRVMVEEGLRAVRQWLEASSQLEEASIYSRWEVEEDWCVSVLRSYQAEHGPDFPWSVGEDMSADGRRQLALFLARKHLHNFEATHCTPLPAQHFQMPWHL

Measured: Activity

CCCCCCCC/C=C\CCCCCCCC(=O)OC(COC)COP(C)(=O)F (stereo unspecified)
active: [1] | [2] | [3] | [4] | [5] | [6]
